Assay results: ChEMBL document CHEMBL1817572, “New, potent, selective, and short-acting peptidic V1a receptor agonists” (J Med Chem, 2011)
pEC50: −log10 of the molar value.

Chains of the proteins cited; added tags and fusions are not shown.
UniProt P37288, whole entry: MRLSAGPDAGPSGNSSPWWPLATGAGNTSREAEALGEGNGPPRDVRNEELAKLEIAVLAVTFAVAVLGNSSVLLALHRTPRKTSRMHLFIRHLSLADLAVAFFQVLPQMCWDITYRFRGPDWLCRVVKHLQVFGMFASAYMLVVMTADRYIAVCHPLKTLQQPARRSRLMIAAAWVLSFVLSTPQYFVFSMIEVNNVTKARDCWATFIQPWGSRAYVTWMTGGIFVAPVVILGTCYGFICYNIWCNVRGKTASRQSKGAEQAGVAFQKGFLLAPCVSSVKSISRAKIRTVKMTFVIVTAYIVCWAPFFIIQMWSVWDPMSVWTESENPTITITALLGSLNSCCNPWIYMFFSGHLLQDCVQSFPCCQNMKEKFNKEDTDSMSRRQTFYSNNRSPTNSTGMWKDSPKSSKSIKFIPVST

Molecular target: Vasopressin V1a receptor (Homo sapiens, UniProt P37288)
Assay: Agonist activity at recombinant human vasopressin V1a receptor expressed in HEK293 cells by luciferase reporter gene assay
Assay type: functional, cell-based

CC[C@H](C)[C@@H]1NC(=O)[C@H](Cc2ccccc2)NC(=O)[C@@H](N)CSSC[C@@H](C(=O)N2CCC[C@H]2C(=O)N[C@@H](CCCN)C(=O)NCC(N)=O)NC(=O)[C@H](CC(N)=O)NC(=O)[C@H](CCC(N)=O)NC1=O
pEC50: 9.57
